{"sequences": {"note": "The chains behind the UniProt entries cited, without tags or fusion partners.", "UniProt Q13547, whole entry": "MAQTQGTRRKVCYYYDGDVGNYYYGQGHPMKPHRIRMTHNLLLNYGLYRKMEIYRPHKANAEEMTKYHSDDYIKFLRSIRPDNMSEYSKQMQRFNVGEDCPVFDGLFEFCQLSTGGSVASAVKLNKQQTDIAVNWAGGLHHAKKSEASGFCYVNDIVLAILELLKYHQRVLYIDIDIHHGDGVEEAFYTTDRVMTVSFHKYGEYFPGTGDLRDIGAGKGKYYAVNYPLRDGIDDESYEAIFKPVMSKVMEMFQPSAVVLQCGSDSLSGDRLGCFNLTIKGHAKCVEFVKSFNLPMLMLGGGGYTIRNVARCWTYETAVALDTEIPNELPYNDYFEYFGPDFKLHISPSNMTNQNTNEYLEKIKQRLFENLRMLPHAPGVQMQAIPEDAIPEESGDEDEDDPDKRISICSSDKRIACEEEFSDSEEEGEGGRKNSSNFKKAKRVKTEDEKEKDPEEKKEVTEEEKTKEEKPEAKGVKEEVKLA"}, "source": "patent US9034886B2", "about": "“4-aminoquinazoline derivatives and uses thereof” (Shanghai Institute of Pharmaceutical Industry, priority 2011, dated 2015)", "key": {"HDAC1": {"biological_target": "HDAC1 (Homo sapiens (Human), UniProt Q13547)", "experiment": "In vitro inhibition of subtype HDAC1 (HDAC1 Inhibitor Drug Screening Kit, Biovision)", "type": "biochemical", "experimental": "The in vitro inhibitory activities of the compounds towards the subtype HDAC1 were tested according to the instructions in the HDAC1 Inhibitor Drug Screening Kit (Biovision).\n(1) The compounds to be tested were each individually prepared as 10 μM and 1 μM solutions and their inhibitory activities at these concentrations were tested.\nEach dilution sample was placed in two wells and the enzyme inhibition IC50 of the compound was tested."}, "[1]": {"tested_on": "K562 human chronic myelogenous leukemia cells", "experiment": "In vitro anti-proliferative effect, CCK-8 method, K562", "type": "cell-based", "experimental": "The inhibitory activities of the compounds towards Hut78 T lymphocytic leukemia cells, Jurkat E6-1 human T-cell lymphoma, PANC-1 human pancreatic cancer cells, A549 human lung cancer cells, K562 human chronic myelogenous leukemia cells, Hep3B2.1-7 human liver cancer cells, MDA-MB-435s human breast cancer cells. Colo320 human colorectal cancer cell lines, and PC-3 human prostate cancer at two concentrations of 100 μM and 10 μM were determined. The inhibition percentages were obtained through CCK-8 method."}}}
{"smiles": "Nc1ccccc1NC(=O)c1ccc(CNC(=O)OCc2cccnc2)cc1", "note": "[MS-275, reference compound]", "values": [{"measurement": "% Inhibition towards HDAC1", "setting": "HDAC1; 1 μM", "value": 46.58, "unit": "%"}, {"measurement": "% Inhibition towards HDAC1", "setting": "HDAC1; 10 μM", "value": 76.20, "unit": "%"}, {"measurement": "IC50", "setting": "[1]", "value": 4.66, "unit": "µM"}]}
